This assay concerns the target FLT3 (Homo sapiens, UniProt P36888). As to the kind of experiment: SelectScreen kinase assay against FLT3. The settings on record: esters of formula (IB), ATP at 100 micromolar.

The chains behind the UniProt entries cited, without tags or fusion partners. Residues count along the entry.
UniProt P36888, 27-993 limits assumed: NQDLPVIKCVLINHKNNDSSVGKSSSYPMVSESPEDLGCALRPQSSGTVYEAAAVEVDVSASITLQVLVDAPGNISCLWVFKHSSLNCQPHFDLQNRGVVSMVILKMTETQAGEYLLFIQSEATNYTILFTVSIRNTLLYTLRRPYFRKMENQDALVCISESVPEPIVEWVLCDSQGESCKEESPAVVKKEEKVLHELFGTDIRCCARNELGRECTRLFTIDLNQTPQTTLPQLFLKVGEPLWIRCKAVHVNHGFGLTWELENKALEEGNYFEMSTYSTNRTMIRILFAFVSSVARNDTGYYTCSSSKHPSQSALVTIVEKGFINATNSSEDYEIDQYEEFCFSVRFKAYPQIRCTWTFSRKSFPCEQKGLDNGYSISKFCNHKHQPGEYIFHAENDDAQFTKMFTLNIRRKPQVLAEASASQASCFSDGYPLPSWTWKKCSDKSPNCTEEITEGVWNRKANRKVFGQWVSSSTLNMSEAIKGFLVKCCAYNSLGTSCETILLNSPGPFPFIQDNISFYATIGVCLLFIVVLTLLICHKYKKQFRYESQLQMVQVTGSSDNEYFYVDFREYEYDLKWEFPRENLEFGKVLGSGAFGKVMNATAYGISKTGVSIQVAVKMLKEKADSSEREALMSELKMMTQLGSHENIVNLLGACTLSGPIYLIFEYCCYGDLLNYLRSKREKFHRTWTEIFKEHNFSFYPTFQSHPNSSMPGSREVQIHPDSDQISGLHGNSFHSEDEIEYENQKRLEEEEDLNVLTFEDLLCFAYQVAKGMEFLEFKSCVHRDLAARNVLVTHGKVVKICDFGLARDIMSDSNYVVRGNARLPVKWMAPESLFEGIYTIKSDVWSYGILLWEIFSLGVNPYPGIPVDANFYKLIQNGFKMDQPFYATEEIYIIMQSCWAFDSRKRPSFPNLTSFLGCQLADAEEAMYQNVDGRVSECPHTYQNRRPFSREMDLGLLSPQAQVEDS

In turn, `CCCCCCCC(=O)Oc1ccc2c(c1)c(=O)c1c(NCCN(CC)CC)ccc3ncn2c31` registered an EC50 of 277 nM. The “E1000 (percent inhibition at 1000 nMolar)” value (1000 nMolar) is given as 74%.

As usually defined, the EC50 is the concentration needed to bring the measured effect to its halfway point. A low value points to greater potency.

(Values after patent US20080108641A1, “Compounds for treating inflammatory disorders, demyelinating disdorders and cancers” (priority 2006, published 2008).)
